Data: patent publication US20050250737A1, “Therapeutic ophthalmic compositions containing retinal friendly excipients and related methods” (Allergan, Inc., priority 2003, published 2005)
Where two headings read alike, the source gives them in different places.

System: ARPE-19 cells
Assay type: cell-based
Protocol: Cell morphology was visualized using light microscopy. Cell morphology observation using light microscopy permits determination of (i) cell number and density and (ii) whether or not cells in contact with an excipient agent display modified phenotype compared to a non-treated population of cells.
Cell morphology was analyzed in parallel by semi-quantitative scoring ranging from 5 to 1, from basal to lethal phenotype respectively, as shown in FIG. 23.
More specifically, cells were removed from an incubator for examination. Morphological shape of cells was visualized using a light microscope and CCD camera. Every 3 wells of a given concentration was observed through image analysis software. Then, a representative photograph describing the average appearance of cells was saved. The supernatant was either, kept for further predefined experiments to perform, or removed using vacuum-pump.
Resulting semi-quantitative scoring is represented as a function of time course and dose response. Score 5 : wild type phenotype of non-treated cells, 100% confluent adherent cells. This phenotype very much vary following post-seeding time. For example, at confluence ARPE-19 cells at 1 day appear well defined with visible outer membrane and dark grey cytoplasm. After 3 days of confluence, limits between cells become less visible and cells adopt a more hexagonal shape and constitute an epithelium-like uniform dense structure. Score 4: density <100%. Cell shape has changed, some spaces are present between cells, few cells possibly detached. Score 3: 80% <Cell density <40%. Spaces are sometimes present among cells, areas appears confluent while in others, cells detached. General cell shape starts showing non negligible alterations. Score 2: Cell density <50%. Cells adopt exclusively stressed appearance, presence of mass dead floating cells. Score 1: Cell density <10%. Presence of almost exclusively dead cells.
Based on quotation, each condition of the applied compound was given a score which allow to a morphology evolution profile to be prepared, ie. cell morphology as a function of compound concentration and time of exposure. […]

- Cell morphology score (5 to 1), Mean (0.05% excipient, 24 hours): 5.0
- Cell morphology score (5 to 1), Mean (0.05% excipient, 48 hours): 5.0
- Cell morphology score (5 to 1), Mean (0.05% excipient, 72 hours): 5.0
- Cell morphology score (5 to 1), Mean (0.1% excipient, 24 hours): 5.0
- Cell morphology score (5 to 1), Mean (0.1% excipient, 48 hours): 5.0
- Cell morphology score (5 to 1), Mean (0.1% excipient, 72 hours): 4.7
- Cell morphology score, experiment 3 (0.1% excipient, 72 hours): 4 (Score 4: density <100%)
- Cell morphology score (5 to 1), Mean (0.5% excipient, 24 hours): 5.0
- Cell morphology score (5 to 1), Mean (0.5% excipient, 48 hours): 4.7
- Cell morphology score, experiment 3 (0.5% excipient, 48 hours): 4 (Score 4: density <100%)
- Cell morphology score (5 to 1), Mean (0.5% excipient, 72 hours): 4.3
- Cell morphology score, experiment 3 (0.5% excipient, 72 hours): 3 (Score 3: 80% <Cell density <40%)
- Cell morphology score (5 to 1), Mean (1.0% excipient, 24 hours): 5.0
- Cell morphology score (5 to 1), Mean (1.0% excipient, 48 hours): 4.7
- Cell morphology score, experiment 3 (1.0% excipient, 48 hours): 4 (Score 4: density <100%)
- Cell morphology score (5 to 1), Mean (1.0% excipient, 72 hours): 3.7
- Cell morphology score, experiment 3 (1.0% excipient, 72 hours): 1 (Score 1: Cell density <10%)
- Cell morphology score (5 to 1), Mean (5.0% excipient, 24 hours): 4.3
- Cell morphology score, experiment 3 (5.0% excipient, 24 hours): 3 (Score 3: 80% <Cell density <40%)
- Cell morphology score (5 to 1), Mean (5.0% excipient, 48 hours): 4.7
- Cell morphology score, experiment 3 (5.0% excipient, 48 hours): 4 (Score 4: density <100%)
- Cell morphology score (5 to 1), Mean (5.0% excipient, 72 hours): 3.3
- Cell morphology score, experiment 2 (5.0% excipient, 72 hours): 4 (Score 4: density <100%)
- Cell morphology score, experiment 3 (5.0% excipient, 72 hours): 1 (Score 1: Cell density <10%)
- Cell morphology score (5 to 1), Mean (10.0% excipient, 24 hours): 4.3
- Cell morphology score, experiment 3 (10.0% excipient, 24 hours): 3 (Score 3: 80% <Cell density <40%)
- Cell morphology score (5 to 1), Mean (10.0% excipient, 48 hours): 3.3
- Cell morphology score, experiment 2 (10.0% excipient, 48 hours): 4 (Score 4: density <100%)
- Cell morphology score, experiment 3 (10.0% excipient, 48 hours): 1 (Score 1: Cell density <10%)
- Cell morphology score (5 to 1), Mean (10.0% excipient, 72 hours): 3.0
- Cell morphology score, experiment 1 (10.0% excipient, 72 hours): 4 (Score 4: density <100%)
- Cell morphology score, experiment 2 (10.0% excipient, 72 hours): 4 (Score 4: density <100%)
- Cell morphology score, experiment 3 (10.0% excipient, 72 hours): 1 (Score 1: Cell density <10%)
Substance: hydroxypropyl gamma-cyclodextrin [Cavasol]
- Cell morphology score, experiment 1 (0.05% excipient, 24 hours): 5 (Score 5 : wild type phenotype of non-treated cells, 100% confluent adherent cells)
- Cell morphology score, experiment 2 (0.05% excipient, 24 hours): 5 (Score 5 : wild type phenotype of non-treated cells, 100% confluent adherent cells)
- Cell morphology score, experiment 3 (0.05% excipient, 24 hours): 5 (Score 5 : wild type phenotype of non-treated cells, 100% confluent adherent cells)
- Cell morphology score, experiment 1 (0.05% excipient, 48 hours): 5 (Score 5 : wild type phenotype of non-treated cells, 100% confluent adherent cells)
- Cell morphology score, experiment 2 (0.05% excipient, 48 hours): 5 (Score 5 : wild type phenotype of non-treated cells, 100% confluent adherent cells)
- Cell morphology score, experiment 3 (0.05% excipient, 48 hours): 5 (Score 5 : wild type phenotype of non-treated cells, 100% confluent adherent cells)
- Cell morphology score, experiment 1 (0.05% excipient, 72 hours): 5 (Score 5 : wild type phenotype of non-treated cells, 100% confluent adherent cells)
- Cell morphology score, experiment 2 (0.05% excipient, 72 hours): 5 (Score 5 : wild type phenotype of non-treated cells, 100% confluent adherent cells)
- Cell morphology score, experiment 3 (0.05% excipient, 72 hours): 5 (Score 5 : wild type phenotype of non-treated cells, 100% confluent adherent cells)
- Cell morphology score, experiment 1 (0.1% excipient, 24 hours): 5 (Score 5 : wild type phenotype of non-treated cells, 100% confluent adherent cells)
- Cell morphology score, experiment 2 (0.1% excipient, 24 hours): 5 (Score 5 : wild type phenotype of non-treated cells, 100% confluent adherent cells)
- Cell morphology score, experiment 3 (0.1% excipient, 24 hours): 5 (Score 5 : wild type phenotype of non-treated cells, 100% confluent adherent cells)
- Cell morphology score, experiment 1 (0.1% excipient, 48 hours): 5 (Score 5 : wild type phenotype of non-treated cells, 100% confluent adherent cells)
- Cell morphology score, experiment 2 (0.1% excipient, 48 hours): 5 (Score 5 : wild type phenotype of non-treated cells, 100% confluent adherent cells)
- Cell morphology score, experiment 3 (0.1% excipient, 48 hours): 5 (Score 5 : wild type phenotype of non-treated cells, 100% confluent adherent cells)
- Cell morphology score, experiment 1 (0.1% excipient, 72 hours): 5 (Score 5 : wild type phenotype of non-treated cells, 100% confluent adherent cells)
- Cell morphology score, experiment 2 (0.1% excipient, 72 hours): 5 (Score 5 : wild type phenotype of non-treated cells, 100% confluent adherent cells)
- Cell morphology score, experiment 1 (0.5% excipient, 24 hours): 5 (Score 5 : wild type phenotype of non-treated cells, 100% confluent adherent cells)
- Cell morphology score, experiment 2 (0.5% excipient, 24 hours): 5 (Score 5 : wild type phenotype of non-treated cells, 100% confluent adherent cells)
- Cell morphology score, experiment 3 (0.5% excipient, 24 hours): 5 (Score 5 : wild type phenotype of non-treated cells, 100% confluent adherent cells)
- Cell morphology score, experiment 1 (0.5% excipient, 48 hours): 5 (Score 5 : wild type phenotype of non-treated cells, 100% confluent adherent cells)
- Cell morphology score, experiment 2 (0.5% excipient, 48 hours): 5 (Score 5 : wild type phenotype of non-treated cells, 100% confluent adherent cells)
- Cell morphology score, experiment 1 (0.5% excipient, 72 hours): 5 (Score 5 : wild type phenotype of non-treated cells, 100% confluent adherent cells)
- Cell morphology score, experiment 2 (0.5% excipient, 72 hours): 5 (Score 5 : wild type phenotype of non-treated cells, 100% confluent adherent cells)
- Cell morphology score, experiment 1 (1.0% excipient, 24 hours): 5 (Score 5 : wild type phenotype of non-treated cells, 100% confluent adherent cells)
- Cell morphology score, experiment 2 (1.0% excipient, 24 hours): 5 (Score 5 : wild type phenotype of non-treated cells, 100% confluent adherent cells)
- Cell morphology score, experiment 3 (1.0% excipient, 24 hours): 5 (Score 5 : wild type phenotype of non-treated cells, 100% confluent adherent cells)
- Cell morphology score, experiment 1 (1.0% excipient, 48 hours): 5 (Score 5 : wild type phenotype of non-treated cells, 100% confluent adherent cells)
- Cell morphology score, experiment 2 (1.0% excipient, 48 hours): 5 (Score 5 : wild type phenotype of non-treated cells, 100% confluent adherent cells)
- Cell morphology score, experiment 1 (1.0% excipient, 72 hours): 5 (Score 5 : wild type phenotype of non-treated cells, 100% confluent adherent cells)
- Cell morphology score, experiment 2 (1.0% excipient, 72 hours): 5 (Score 5 : wild type phenotype of non-treated cells, 100% confluent adherent cells)
- Cell morphology score, experiment 1 (5.0% excipient, 24 hours): 5 (Score 5 : wild type phenotype of non-treated cells, 100% confluent adherent cells)
- Cell morphology score, experiment 2 (5.0% excipient, 24 hours): 5 (Score 5 : wild type phenotype of non-treated cells, 100% confluent adherent cells)
- Cell morphology score, experiment 1 (5.0% excipient, 48 hours): 5 (Score 5 : wild type phenotype of non-treated cells, 100% confluent adherent cells)
- Cell morphology score, experiment 2 (5.0% excipient, 48 hours): 5 (Score 5 : wild type phenotype of non-treated cells, 100% confluent adherent cells)
- Cell morphology score, experiment 1 (5.0% excipient, 72 hours): 5 (Score 5 : wild type phenotype of non-treated cells, 100% confluent adherent cells)
- Cell morphology score, experiment 1 (10.0% excipient, 24 hours): 5 (Score 5 : wild type phenotype of non-treated cells, 100% confluent adherent cells)
- Cell morphology score, experiment 2 (10.0% excipient, 24 hours): 5 (Score 5 : wild type phenotype of non-treated cells, 100% confluent adherent cells)
- Cell morphology score, experiment 1 (10.0% excipient, 48 hours): 5 (Score 5 : wild type phenotype of non-treated cells, 100% confluent adherent cells)
